This is an account of results in patent US8636711B2 (priority 2010, dated 2014).

Like-named read-outs stand apart in the source and are kept apart here.

For data set [1], the system named is NIH 3T3 cells. Conditions: cited from earlier work.
Data set [2] has as its system NIH 3T3 cells. Conditions: lactose-free.

Take `CSCC[C@H](NC(=O)[C@H](CC(C)C)NC(=O)[C@H](Cc1c[nH]c2ccccc12)NC(=O)[C@H](CCC(N)=O)NC(=O)[C@@H](NC(=O)[C@H](Cc1ccccc1)NC(=O)[C@H](CC(=O)O)NC(=O)[C@H](CCC(N)=O)NC(=O)[C@H](C)NC(=O)[C@H](CCCN=C(N)N)NC(=O)[C@H](CCCN=C(N)N)NC(=O)[C@H](CO)NC(=O)[C@H](CC(=O)O)NC(=O)[C@H](CC(C)C)NC(=O)[C@H](Cc1ccc(O)cc1)NC(=O)[C@H](CCCCN)NC(=O)[C@H](CO)NC(=O)[C@H](Cc1ccc(O)cc1)NC(=O)[C@H](CC(=O)O)NC(=O)[C@H](CO)NC(=O)[C@@H](NC(=O)[C@H](Cc1ccccc1)NC(=O)[C@@H](NC(=O)CNC(=O)[C@H](CCC(N)=O)NC(=O)[C@H](CO)NC(=O)[C@@H](N)Cc1c[nH]cn1)[C@@H](C)O)[C@@H](C)O)C(C)C)C(=O)N[C@@H](CC(N)=O)C(=O)N[C@H](C(=O)O)[C@@H](C)O` [native glucagon, glucagon]: the “cytotoxicity (Onoue and colleagues)” value is reported as “not cytotoxic” in the data set with NIH 3T3 cells [1] (5 mg/mL, no aging) and “definite cytotoxicity” in the data set with NIH 3T3 cells [1] (aged at 5 mg/mL, aging for only 1 day). Also, the cytotoxicity result in the data set with NIH 3T3 cells [2] (aged 5 days, Tris pH 8.5) is recorded as “mild to moderate cytotoxicity”; in the data set on NIH 3T3 cells [2] (aged 5 days, Tris pH 8.5, listed as lactose-free glucagon), “some evidence of toxicity”; in the data set with NIH 3T3 cells [2] (no aging, any concentration, pH 8.5 or 10), “no significant cytotoxicity”.
